Reference: patent US20220177490A1, “COMPOUNDS HAVING BOTH EFFECTS OF BET BROMODOMAIN PROTEIN INHIBITION AND PD-L1 GENE REGULATION” (priority 2019, published 2022)

How the values were obtained:
BRD4-1 (BRD4 BD1) = BRD4-1 (BRD4 BD1) (Homo sapiens, UniProt O60885); assay: AlphaScreen binding assay of BRD4 biochemical activity (BD1); details: read-out: BRD4 (BD1) IC50; BD1, first value of cell; 10 concentrations, single well, initial 10 μM, 3-fold dilution
BRD4-2 (BRD4 BD2) = BRD4-2 (BRD4 BD2) (Homo sapiens, UniProt O60885); assay: AlphaScreen binding assay of BRD4 biochemical activity (BD2); details: read-out: BRD4 (BD2) IC50; BD2, second value of cell; 10 concentrations, single well, initial 10 μM, 3-fold dilution

SMILES: Cc1sc2c(c1C)C(c1ccc(Cl)cc1)=N[C@@H](CC(=O)Nc1ccc3c(c1)CC1CON=C31)c1nnc(C)n1-2 (single isomer, unassigned) [Compound 6]
- IC50 (BRD4-1 (BRD4 BD1)): 63.8 nM
- IC50 (BRD4-2 (BRD4 BD2)): 15.1 nM

SMILES: Cc1sc2c(c1C)C(c1ccc(Cl)cc1)=N[C@@H](CC(=O)Nc1ccc3c(c1)CC1CON=C31)c1nnc(C)n1-2 (single isomer, unassigned) [Compound 5]
- IC50 (BRD4-1 (BRD4 BD1)): 31.2 nM
- IC50 (BRD4-2 (BRD4 BD2)): 4.06 nM
